Assay results as given in PubChem BioAssay (Tox21).
The entries are a selection whose mix differs from that of the whole data set. Records with an inconclusive call do not appear. The source made the active and inactive calls. Unless noted, calls follow the shape of the dose curve; as a rule, active = well fitted curve in the direction sought with a large enough effect in the repeat runs; inconclusive = weak or mixed curves; inactive = no such curve, though single readings can be large; an effect the other way counts as inactive or inconclusive.

By UniProt entry, the sequences of proteins in these tests, tags left out.
UniProt P34981, whole entry: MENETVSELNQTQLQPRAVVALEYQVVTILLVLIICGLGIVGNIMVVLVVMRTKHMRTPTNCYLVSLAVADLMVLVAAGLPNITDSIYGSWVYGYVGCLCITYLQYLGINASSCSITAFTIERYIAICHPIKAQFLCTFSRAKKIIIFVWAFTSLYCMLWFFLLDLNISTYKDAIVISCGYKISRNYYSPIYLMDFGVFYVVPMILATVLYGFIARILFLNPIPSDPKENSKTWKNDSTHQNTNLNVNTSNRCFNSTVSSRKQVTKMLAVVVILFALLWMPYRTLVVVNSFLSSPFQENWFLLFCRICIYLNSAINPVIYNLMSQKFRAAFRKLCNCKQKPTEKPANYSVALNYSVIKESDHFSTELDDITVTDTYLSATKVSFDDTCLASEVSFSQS
UniProt P10635, whole entry: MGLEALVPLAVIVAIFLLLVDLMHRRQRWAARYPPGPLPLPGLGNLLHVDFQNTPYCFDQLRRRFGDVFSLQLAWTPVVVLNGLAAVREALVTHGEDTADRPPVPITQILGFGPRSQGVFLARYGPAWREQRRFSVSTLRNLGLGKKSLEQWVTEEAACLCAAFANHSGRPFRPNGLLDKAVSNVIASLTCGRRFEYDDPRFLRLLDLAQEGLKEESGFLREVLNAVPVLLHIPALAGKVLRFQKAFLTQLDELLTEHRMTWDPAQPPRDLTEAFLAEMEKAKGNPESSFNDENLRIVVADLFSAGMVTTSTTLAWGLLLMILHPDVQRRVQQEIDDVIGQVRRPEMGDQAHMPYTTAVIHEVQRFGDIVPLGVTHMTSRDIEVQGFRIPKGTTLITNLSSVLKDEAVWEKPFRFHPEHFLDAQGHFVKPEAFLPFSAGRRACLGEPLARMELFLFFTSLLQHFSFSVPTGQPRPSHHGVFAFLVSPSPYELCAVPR
UniProt P33261, whole entry: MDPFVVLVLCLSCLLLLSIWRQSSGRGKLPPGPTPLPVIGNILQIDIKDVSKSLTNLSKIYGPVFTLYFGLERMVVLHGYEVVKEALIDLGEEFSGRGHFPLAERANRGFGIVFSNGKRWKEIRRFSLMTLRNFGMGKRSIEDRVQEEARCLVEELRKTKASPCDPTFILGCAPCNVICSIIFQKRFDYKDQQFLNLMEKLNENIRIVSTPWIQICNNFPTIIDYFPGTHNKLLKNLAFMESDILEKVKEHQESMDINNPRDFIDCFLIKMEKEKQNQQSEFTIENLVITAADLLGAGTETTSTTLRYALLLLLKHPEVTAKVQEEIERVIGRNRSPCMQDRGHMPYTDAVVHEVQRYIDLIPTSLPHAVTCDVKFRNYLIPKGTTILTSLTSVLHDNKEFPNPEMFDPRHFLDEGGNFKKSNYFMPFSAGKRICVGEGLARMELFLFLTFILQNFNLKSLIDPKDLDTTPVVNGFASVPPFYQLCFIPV
UniProt P11712, whole entry: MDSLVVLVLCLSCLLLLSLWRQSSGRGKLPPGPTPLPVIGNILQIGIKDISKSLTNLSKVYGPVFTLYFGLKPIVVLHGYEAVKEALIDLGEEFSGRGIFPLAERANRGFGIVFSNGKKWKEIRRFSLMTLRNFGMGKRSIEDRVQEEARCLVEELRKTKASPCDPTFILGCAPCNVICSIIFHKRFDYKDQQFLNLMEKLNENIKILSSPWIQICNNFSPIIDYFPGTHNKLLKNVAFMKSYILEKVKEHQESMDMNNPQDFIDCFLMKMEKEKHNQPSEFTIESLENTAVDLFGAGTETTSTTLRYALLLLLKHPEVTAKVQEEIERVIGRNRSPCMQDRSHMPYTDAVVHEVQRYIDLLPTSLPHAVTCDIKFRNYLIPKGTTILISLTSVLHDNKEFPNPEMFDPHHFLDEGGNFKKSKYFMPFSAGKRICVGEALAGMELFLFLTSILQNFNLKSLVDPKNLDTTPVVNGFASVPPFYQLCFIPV
UniProt P05177, whole entry: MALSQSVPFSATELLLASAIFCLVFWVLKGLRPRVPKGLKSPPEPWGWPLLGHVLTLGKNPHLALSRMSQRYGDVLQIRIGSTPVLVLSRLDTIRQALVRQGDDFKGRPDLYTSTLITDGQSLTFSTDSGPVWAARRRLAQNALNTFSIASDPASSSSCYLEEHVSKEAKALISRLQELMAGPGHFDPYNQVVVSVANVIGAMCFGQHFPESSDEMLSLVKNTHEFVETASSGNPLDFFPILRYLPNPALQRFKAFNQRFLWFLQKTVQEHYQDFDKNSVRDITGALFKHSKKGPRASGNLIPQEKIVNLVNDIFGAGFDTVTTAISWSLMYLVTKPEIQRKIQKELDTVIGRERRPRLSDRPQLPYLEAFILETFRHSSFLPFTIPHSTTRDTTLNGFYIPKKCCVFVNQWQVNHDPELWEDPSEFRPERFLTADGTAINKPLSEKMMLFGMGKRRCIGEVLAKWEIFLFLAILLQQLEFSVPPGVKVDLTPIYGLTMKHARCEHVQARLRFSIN
UniProt P06401, whole entry: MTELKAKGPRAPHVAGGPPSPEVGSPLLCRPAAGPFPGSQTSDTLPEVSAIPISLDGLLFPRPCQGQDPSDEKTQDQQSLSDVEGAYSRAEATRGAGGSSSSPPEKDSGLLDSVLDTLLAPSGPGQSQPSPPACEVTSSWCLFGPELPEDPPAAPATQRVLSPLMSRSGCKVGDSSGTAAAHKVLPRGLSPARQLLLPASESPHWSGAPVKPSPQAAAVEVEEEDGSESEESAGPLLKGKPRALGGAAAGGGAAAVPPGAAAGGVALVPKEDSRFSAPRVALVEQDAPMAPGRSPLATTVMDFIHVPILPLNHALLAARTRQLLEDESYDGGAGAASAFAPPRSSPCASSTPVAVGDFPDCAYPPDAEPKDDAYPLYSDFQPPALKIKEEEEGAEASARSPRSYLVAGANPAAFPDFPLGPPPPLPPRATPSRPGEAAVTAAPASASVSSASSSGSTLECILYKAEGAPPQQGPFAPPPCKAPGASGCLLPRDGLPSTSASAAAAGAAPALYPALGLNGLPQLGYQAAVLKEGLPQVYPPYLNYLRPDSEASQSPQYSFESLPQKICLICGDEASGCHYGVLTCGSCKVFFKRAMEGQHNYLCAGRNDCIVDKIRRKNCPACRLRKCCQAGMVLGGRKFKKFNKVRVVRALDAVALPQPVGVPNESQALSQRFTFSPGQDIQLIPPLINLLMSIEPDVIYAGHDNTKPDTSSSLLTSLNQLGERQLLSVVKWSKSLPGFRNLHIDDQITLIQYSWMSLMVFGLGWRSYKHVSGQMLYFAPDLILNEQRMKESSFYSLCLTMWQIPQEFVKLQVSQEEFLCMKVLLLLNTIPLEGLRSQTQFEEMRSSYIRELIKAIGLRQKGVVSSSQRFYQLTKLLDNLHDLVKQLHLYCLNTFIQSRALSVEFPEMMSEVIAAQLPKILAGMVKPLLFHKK
UniProt O75469, whole entry: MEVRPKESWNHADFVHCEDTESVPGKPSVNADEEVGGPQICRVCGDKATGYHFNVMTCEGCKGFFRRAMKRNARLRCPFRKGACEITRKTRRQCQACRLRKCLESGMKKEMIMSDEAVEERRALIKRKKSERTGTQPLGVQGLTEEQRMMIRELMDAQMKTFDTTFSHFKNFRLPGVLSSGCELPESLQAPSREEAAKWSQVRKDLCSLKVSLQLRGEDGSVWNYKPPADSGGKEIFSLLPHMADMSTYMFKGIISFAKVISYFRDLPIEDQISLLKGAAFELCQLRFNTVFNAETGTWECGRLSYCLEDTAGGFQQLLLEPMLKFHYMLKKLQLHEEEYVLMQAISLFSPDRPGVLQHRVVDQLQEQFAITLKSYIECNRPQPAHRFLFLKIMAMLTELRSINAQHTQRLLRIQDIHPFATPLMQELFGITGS

Experiments:
[1] = qHTS assay to identify small molecule agonists of the TGF-beta/Smad signaling pathway (AID 1346859; active = well fitted activation curve with a large enough effect in the signal ratio in the repeat runs, not every such curve was filed as active; the % refers to the signal ratio; also: % is scaled to controls: 0 for no effect and ±100 for the full control effect); conditions: SBE-bla HEK293T, TGF-beta/Smad beta-lactamase reporter, 5 h
In short: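 Smad-responsive beta-lactamase reporter cells (HEK 293T) received compounds from DMSO stocks after overnight attachment, were incubated 5 hr, then treated 2 hr with FRET substrate before dual-emission fluorescence measurement (405 nm excitation).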

[2] = target: Thyrotropin-releasing hormone receptor (Homo sapiens) (UniProt P34981); test: qHTS assay to identify small molecule antagonists of the thyrotropin-releasing hormone receptor (TRHR) signaling pathway (AID 1346877; active = well fitted inhibition curve with a large enough effect in the repeat runs, not every such curve was filed as active; also: % is scaled to controls: 0 for no effect and ±100 for the full control effect); conditions: TRHR-HEK293, TRH-induced calcium fluorescence, antagonist mode
[3] = target: Thyrotropin-releasing hormone receptor (Homo sapiens) (UniProt P34981); test: qHTS assay to identify small molecule agonists of the thyrotropin-releasing hormone receptor (TRHR) signaling pathway (AID 1346891; calls by dose curve;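 also: HEK293 cells expressing TRHR with calcium dye readout; % is scaled to controls: 0 for no effect and ±100 for the full control effect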); conditions: TRHR-HEK293 calcium fluorescence, agonist mode
[4] = target: Cytochrome P450 2D6 (Homo sapiens) (UniProt P10635); test: Cytochrome P450 Family 2 Subfamily D Member 6 (CYP2D6) small molecule antagonists: luciferase reporter qHTS assay (AID 1671196); conditions: P450-Glo CYP2D6 enzyme assay, luciferin luminescence, 1 h; series mostly up to 115 µM; also: nearly all actives have a fitted effect of over 50% in size; also: potency is read from the fitted curve at half-maximal effect
In short: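 Cell-free P450-Glo system: CYP2D6 with proluciferin substrate was pre-incubated with compound for 10 min, then reacted with NADPH regeneration for 1 h at room temperature. Luciferin product was detected after 20 min, and data were reported as relative luminescence units.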

[5] = target: Cytochrome P450 2C19 (Homo sapiens) (UniProt P33261); test: Cytochrome P450 Family 2 Subfamily C Member 19 (CYP2C19) small molecule antagonists: luciferase reporter qHTS assay (AID 1671197); conditions: P450-Glo CYP2C19 enzyme, luciferin luminescence, 1 h; series mostly up to 115 µM; also: nearly all actives have a fitted effect of over 65% in size; also: potency is read from the fitted curve at half-maximal effect
In short: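 Luminescent readout of CYP2C19 activity: luciferin product detected 20 min after adding detection reagent. Before that, compound and enzyme-substrate mix preincubated 10 min at room temperature; NADPH-regenerating system started a 1 h, 37C reaction. Ketoconazole as positive control.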

[6] = target: Cytochrome P450 2C9 (Homo sapiens) (UniProt P11712); test: Cytochrome P450 Family 2 Subfamily C Member 9 (CYP2C9) small molecule antagonists: luciferase reporter qHTS assay (AID 1671198); conditions: P450-Glo CYP2C9 enzyme assay, luciferin luminescence; also: % is scaled to controls: 0 for no effect and ±100 for the full control effect; nearly all actives have a fitted effect of over 50% in size
In short: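 P450-Glo proluciferin substrate with CYP2C9 enzyme; 10 min RT preincubation, then NADPH regeneration 1 h at 37C; luciferin detection reagent 20 min RT, luminescence in relative luminescence units.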

[7] = target: Cytochrome P450 1A2 (Homo sapiens) (UniProt P05177); test: Cytochrome P450 Family 1 Subfamily A Member 2 (CYP1A2) small molecule antagonists: luciferase reporter qHTS assay (AID 1671199); conditions: P450-Glo CYP1A2 enzyme, luciferin luminescence, 1 h; at 115 µM (top of the series) unless noted; also: % is scaled to controls: 0 for no effect and ±100 for the full control effect; nearly all actives have a fitted effect of over 50% in size
Source text: National Center for Advancing Translational Sciences [NCATS]
U.S. Environmental Protection Agency [EPA]
National Institutes of Environmental Health Sciences [NIEHS]
National Toxicology Program [NTP]
U.S. Food and Drug Administration [FDA]
Cytochrome P450 (CYP) enzymes are membrane-bound hemeproteins that play a key role in metabolism of drugs and xenobiotics. Evaluation of the effect of chemicals on CYP isozymes is useful to minimize the adverse drug reactions and toxicities in drug development process. Tox21 chemicals were tested for their effect on CYP enzyme activities by using P450-Glo (TM) screening systems (Promega Corporation, Madison, WI). These systems provide a luminescent method containing proluciferin substrates and are converted to luciferin products by CYP isozymes. The luciferin products formed are detected with a luciferin detection reagent, and the amount of light produced is proportional to CYP activity. P450-Glo (TM) CYP1A2 screening system (Catalog. No. V9770) was used to detect the compounds that interfere in CYP1A2 activity.
Tox21 Assay Protocol Summary:
Two ul of enzyme-substrate mix was dispensed into medium binding white/solid 1536-well plates (Greiner Bio-One North America Inc., Monroe, NC) using a BioRaptr Flying Reagent Dispenser (FRD, Beckman Coulter, Brea, CA). Compounds dissolved in DMSO and positive control (furafyllline) were transferred to the assay plates at 23 nl using a Pintool station (Wako, San Diego, CA). The assay plates were incubated at room temperature for 10 min. Then 2 ul of NADPH regeneration solution was added to each well of the assay plates using an FRD and incubated at room temperature for 1 h. The reaction was stopped by adding 4 ul of detection reagent using an FRD and after 20 min incubation at room temperature the luminescence signal was measured using a ViewLux plate reader (Perkin Elmer, Shelton, CT). Data were expressed as relative luminescence units.

[8] = qHTS assay to identify small molecule agonists of the estrogen receptor alpha (ER-alpha) signaling pathway in the presence of an antagonist - cell viability counter screen (AID 1259386); conditions: VM7Luc4E2 viability, CellTiter-Fluor fluorescence, 22 h; at 92.4 µM (top of the series);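 also: cells exposed to compounds for 22 h at 37 °C before the viability read; % is scaled to controls: 0 for no effect and ±100 for the full control effect; nearly all actives have a fitted effect of over 30% in size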
In short: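 Cell viability in VM7Luc4E2 cells (endogenous full-length ER-alpha) measured by CellTiter-Fluor fluorescence in the same wells as the luciferase screen. Cells pre-cultured 5 days in charcoal-stripped serum, then treated 22 h with compounds at 15 concentrations plus 10.0nM ICI-182,780.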

[9] = target: Progesterone receptor (Homo sapiens) (UniProt P06401); test: qHTS assay to identify small molecule agonists of the progesterone receptor (PR) signaling pathway (AID 1346784; calls by dose curve; also: % is scaled to controls: 0 for no effect and ±100 for the full control effect; nearly all actives have a fitted effect of over 30% in size); conditions: PR-UAS-bla HEK293T, beta-lactamase FRET ratio, 16 h; at 92.4 µM (top of the series)
In short: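 Agonist mode, quantitative HTS format in a HEK 293T line expressing a UAS-controlled beta-lactamase reporter; 16 hr compound exposure at 37C in 2% charcoal-stripped FBS, then LiveBLAzer B/G FRET fluorescence.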

[10] = target: Progesterone receptor (Homo sapiens) (UniProt P06401); test: qHTS assay to identify small molecule antagonists of the progesterone receptor (PR) signaling pathway (AID 1346795; active = well fitted inhibition curve with a large enough effect in the signal ratio in the repeat runs, not every such curve was filed as active; the % refers to the signal ratio; also: % is scaled to controls: 0 for no effect and ±100 for the full control effect); conditions: PR-UAS-bla HEK293T, beta-lactamase FRET ratio, 16 h; at 92.4 µM (top of the series)
In short: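 HEK293T PR-UAS-bla reporter cells in charcoal-stripped serum (2%) received compound after a 6 hr settling period, followed by R5020 agonist at 1 nM final; 16 hr incubation preceded the FRET substrate step and fluorescence measurement.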

[11] = qHTS assay to identify small molecule antagonists of the progesterone receptor (PR) signaling pathway - cell viability counter screen (AID 1346798); conditions: PR-UAS-bla HEK293T viability, CellTiter-Glo luminescence, 16 h; at 92.4 µM (top of the series); also: % is scaled to controls: 0 for no effect and ±100 for the full control effect; nearly all actives have a fitted effect of over 50% in size
In short: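 Same-well multiplex: after 16 hr at 37C with compound and R5020 stimulation, HEK293T cells carrying a UAS-bla reporter received LiveBLAzer substrate (2 hr RT), then CellTiter-Glo (30 min RT) for luminescent viability.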

[12] = qHTS assay to identify small molecule agonists of the progesterone receptor (PR) signaling pathway - cell viability counter screen (AID 1346799; calls by dose curve; also: % is scaled to controls: 0 for no effect and ±100 for the full control effect; nearly all actives have a fitted effect of over 45% in size); conditions: PR-UAS-bla HEK293T viability, CellTiter-Glo luminescence, 16 h; at 92.4 µM (top of the series)
In short: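 Counter screen for cytotoxicity: compound-treated PR-UAS-bla HEK293T cells (16 hr, 37C, 5% CO2) were assayed with CellTiter-Glo, luminescence measured after 30 min at room temperature.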

[13] = qHTS assay to identify small molecule antagonists of the TGF-beta/Smad signaling pathway - cell viability counter screen (AID 1346824); conditions: SBE-bla HEK293T viability, CellTiter-Glo luminescence; at 76.8 µM (top of the series)
In short: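 SBE-bla HEK 293T cells, incubated overnight, then compound plus 0.25 ng/mL TGF-beta1 (stock added) for 5 hr at 37 C. Viability was read in the same wells by CellTiter-Glo luminescence after 30 min at room temperature.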

[14] = qHTS assay to identify small molecule agonists of the TGF-beta/Smad signaling pathway - cell viability counter screen (AID 1346829); conditions: SBE-bla HEK293T viability, CellTiter-Glo luminescence, 5 h; at 76.8 µM (top of the series); also: top concentration of the series differs between compounds; % is scaled to controls: 0 for no effect and ±100 for the full control effect; nearly all actives have a fitted effect of over 45% in size
In short: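 Cytotoxicity counter screen: CellTiter-Glo luminescence (30 min, room temperature) measured in the SBE-bla HEK 293T reporter wells after 5 hr compound treatment at 37 C and the 2 hr substrate step.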

[15] = Human pregnane X receptor (PXR) small molecule agonists, qHTS cell viability counter screen (AID 1346977); conditions: PXR-Luc HepG2 viability, CellTiter-Fluor, 24 h; at 92.4 µM (top of the series)
In short: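 Measures live-cell protease fluorescence (CellTiter-Fluor) in PXR-Luc HepG2 cells treated 24hr with compounds at 37C. Cells had 5hr to attach before pin transfer of DMSO solutions.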

[16] = Caspase-3/7 induction in HepG2 cells by small molecules, qHTS assay (AID 1346978); conditions: HepG2 caspase-3/7 activation, Caspase-Glo luminescence, 17 h; at 92.4 µM (top of the series); also: % is scaled to controls: 0 for no effect and ±100 for the full control effect; nearly all actives have a fitted effect of over 15% in size
In short: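 Wild-type HepG2 cells, 2,000/well, settled 5 hr at 37 C and 5% CO2, then compound-treated for 17 hr; caspase-3/7 activity read by luminescent Caspase-Glo 3/7 after 30 min at room temperature.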

[17] = Caspase-3/7 induction in CHO-K1 cells by small molecules, qHTS cell viability counter screen (AID 1346979); conditions: CellTiter-Fluor fluorescence, 17 h; at 92.4 µM (top of the series); also: % is scaled to controls: 0 for no effect and ±100 for the full control effect; nearly all actives have a fitted effect of over 35% in size
In short: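 In the same wells as the caspase read, viability of compound-treated wild-type CHO-K1 cells was assessed using CellTiter-Fluor, added after 16hr at 37C and measured by fluorescence following 1hr further incubation.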

[18] = Caspase-3/7 induction in CHO-K1 cells by small molecules, qHTS assay (AID 1346980); conditions: CHO-K1 caspase-3/7 induction, Caspase-Glo luminescence, 17 h; series mostly up to 92.4 µM; also: nearly all actives have a fitted effect of over 15% in size; also: potency is read from the fitted curve at half-maximal effect
In short: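 Wild-type CHO-K1 cells exposed to compounds for 17hr at 37 C, 5% CO2. Caspase-3/7 activity then measured by Caspase-Glo 3/7 luminescence after 30min at room temperature.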

[19] = Caspase-3/7 induction in HepG2 cells by small molecules, qHTS cell viability counter screen (AID 1346981); conditions: CellTiter-Fluor fluorescence, 17 h; at 92.4 µM (top of the series); also: % is scaled to controls: 0 for no effect and ±100 for the full control effect; nearly all actives have a fitted effect of over 30% in size
In short: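 Wild-type HepG2 cells, 2,000/well, settled 5 hr at 37 C, 5% CO2 before compound addition. Viability read by CellTiter-Fluor fluorescence, reagent added after 16 hr compound exposure, then 1 hr at 37C, in the same wells as the caspase read.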

[20] = target: Nuclear receptor subfamily 1 group I member 2 (Homo sapiens) (UniProt O75469); test: Human pregnane X receptor (PXR) small molecule agonists, qHTS assay (AID 1346982); conditions: PXR-Luc HepG2, CYP3A4 luciferase reporter, 24 h; also: potency is read from the fitted curve at half-maximal effect; nearly all actives have a fitted effect of over 35% in size
In short: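 PXR-Luc HepG2 reporter cells (CYP3A4-driven luciferase) in 5% charcoal-stripped FBS medium, plated 5 h before compound addition, then treated 24 h at 37C. Luciferase read by ONE-Glo luminescence after 30 min at room temperature.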

CN(CCCl)CCCl
inactive: activation ([1]; at 35.3 µM (top of the series)) -0.69% | activation ([1]; at 76.8 µM (top of the series)) 1.84% | activity, negative = inhibition ([2]; at 23.6 µM (top of the series)) -4.38% | activity, negative = inhibition ([2]; at 51.3 µM (top of the series)) -1.32% | activation ([3]; at 26.5 µM (top of the series)) -0.18% | activation ([3]; at 57.6 µM (top of the series)) -0.385% | Potency [4] | Potency [5] | activity change, negative = inhibition ([6]; at 53 µM (top of the series)) -0.285% | activity change, negative = inhibition ([6]; at 115 µM (top of the series)) -17.7% | activity change, negative = inhibition [7] 1.26% [at 53 µM]

CCC(=O)N(c1ccccc1)C1(COC)CCN(CCn2nnn(CC)c2=O)CC1
inactive: activity change, negative = cytotoxicity [8] -3.42% | activation [9] -2.9% | activity change, negative = inhibition [10] -2.75% | activity change, negative = cytotoxicity [11] -23.8% | activity change, negative = cytotoxicity [12] -22% | viability change, negative = cytotoxic [13] 4.95% | activity change, negative = cytotoxicity [14] 1.01% | activation ([1]; at 76.8 µM (top of the series)) 3.09% | activity, negative = inhibition ([2]; at 51.3 µM (top of the series)) 5.65% | activation ([3]; at 57.6 µM (top of the series)) -0.0504% | activity change, negative = cytotoxicity [15] 3.47% | caspase activation [16] 0.682% | activity change, negative = cytotoxicity [17] -0.495% | Potency [18] | activity change, negative = cytotoxicity [19] -0.218% | Potency [4] | Potency [5] | activity change, negative = inhibition [7] -5.26%

CCC(=O)N(c1ccccc1)C1(COC)CCN(CCc2cccs2)CC1
inactive: activity change, negative = cytotoxicity [8] -8% | activation [9] -3.31% | activity change, negative = cytotoxicity [11] 8.22% | activity change, negative = cytotoxicity [12] -2.08% | viability change, negative = cytotoxic [13] -1.55% | activity change, negative = cytotoxicity [14] -1.11% | activation ([1]; at 76.8 µM (top of the series)) -6.74% | activity, negative = inhibition ([2]; at 51.3 µM (top of the series)) -1.04% | activation ([3]; at 57.6 µM (top of the series)) 0.0975% | caspase activation [16] 0.215% | activity change, negative = cytotoxicity [17] -10.3% | Potency [18] | activity change, negative = inhibition [7] -11%
active: Potency [20] 2.73 µM | Potency [4] 1.42 µM | Potency [5] 39.9 µM

O=[N+]([O-])C(Cl)(Cl)Cl
inactive: activity change, negative = cytotoxicity [8] 0.532% | activation [9] 1.66% | activity change, negative = cytotoxicity [12] -0.388% | viability change, negative = cytotoxic [13] -20% | activity change, negative = cytotoxicity [14] -20.9% | activation ([1]; at 76.8 µM (top of the series)) -5.21% | activity, negative = inhibition ([2]; at 51.3 µM (top of the series)) -0.842% | activation ([3]; at 57.6 µM (top of the series)) 0.0162% | activity change, negative = cytotoxicity [15] -21.9% | caspase activation [16] 2.68% | activity change, negative = cytotoxicity [19] 0.23% | Potency [4] | activity change, negative = inhibition ([6]; at 115 µM (top of the series)) -19.8%
active: Potency [18] 13.6 µM | Potency [20] 10.8 µM | Potency [5] 79.4 µM
